IC50 data for 1 compound are collected here from paper PMC9975673 (Cancer discovery, 2023).

For the assay, the target named is TRKB phosphorylation in BDNF-stimulated Ba/F3 TRKB cells (Homo sapiens, UniProt Q16620). The experiment in a line: cell-based.

Consider `CCn1ncc2c1-c1cnc(N)c(c1)O[C@H](C)c1cc(F)ccc1-c1nn(C)nc1C2` [NVL-520, (19R)-3-ethyl-16-fluoro-10,19-dimethyl-20-oxa-3,4,9,10,11,23-hexaazapentacyclo[19.3.1.0²,⁶.0⁸,¹².0¹³,¹⁸]pentacosa-1(24),2(6),4,8,11,13,15,17,21(25),22-decaen-22-amine], for which the IC50 is 850 nM.

As a reminder, the IC50 is the concentration needed to halve the response being measured. Low values mean inhibition by little substance, high ones a need for much substance.
